Results published in ChEMBL document CHEMBL3351546, “Pyridine analogues of spirocyclic σ₁ receptor ligands” (Bioorg Med Chem, 2014).

Assay: Selectivity ratio of Ki for sigma 2 receptor in rat liver membranes to Ki for sigma 1 receptor in guinea pig brain cortex membranes
Assay type: cell membranes

c1ccc(CN2CCC3(CC2)OCCc2sccc23)cc1
Ratio Ki: 42
